Results reported in patent US5786328.

Assays:
Human thrombin (human) = Human thrombin (human) (UniProt P00734)
[1] = target: tissue factor-Factor VIIa (human) (UniProt P13726)
Human Factor Xa (human) = Human Factor Xa (human) (UniProt P00742)
[2] = target: Human activated protein C (human) (UniProt P04070)
[3] = target: Human plasma kallikrein (human) (UniProt P03952)
Human plasmin (human) = Human plasmin (human) (UniProt P00747)
Human Factor XIa (human) [4] = target: Human Factor XIa (human) (UniProt P03951)
[5] = target: Human Factor XIIa (human) (UniProt P00748)
Human Factor XIa (human) [6] = target: Human Factor XIa (human) (UniProt P03951); assay: inhibition of FXIa, chromogenic substrate, fit for tight-binding inhibitors (apparent Ki*)

Row | fraction of remaining proteolytic activity with 100 nM inhibitor (fraction of uninhibited rate) (Human thrombin (human)) | fraction of remaining proteolytic activity with 100 nM inhibitor (fraction of uninhibited rate) [1] | fraction of remaining proteolytic activity with 100 nM inhibitor (fraction of uninhibited rate) (Human Factor Xa (human)) | fraction of remaining proteolytic activity with 100 nM inhibitor (fraction of uninhibited rate) [2] | fraction of remaining proteolytic activity with 100 nM inhibitor (fraction of uninhibited rate) [3] | fraction of remaining proteolytic activity with 100 nM inhibitor (fraction of uninhibited rate) (Human plasmin (human)) | fraction of remaining proteolytic activity with 100 nM inhibitor (fraction of uninhibited rate) (Human Factor XIa (human) [4]) | fraction of remaining proteolytic activity with 100 nM inhibitor (fraction of uninhibited rate) [5] | Ki (Human Factor XIa (human) [6]) [nM] | Substance
1 | 0.97 | 1.01 | 0.99 | 0.84 | 0.34 | 0 | 0.67 | 1.01 | – | BPTI (bovine basic pancreatic trypsin inhibitor)
2 | – | – | – | – | – | – | – | – | > 300 | BPTI (bovine basic pancreatic trypsin inhibitor) (other; other documents disagree on this pair)
